Sequences of proteins named here, by UniProt entry; tags and fusion partners are left off. Residues count along the entry.
UniProt P23977, whole entry: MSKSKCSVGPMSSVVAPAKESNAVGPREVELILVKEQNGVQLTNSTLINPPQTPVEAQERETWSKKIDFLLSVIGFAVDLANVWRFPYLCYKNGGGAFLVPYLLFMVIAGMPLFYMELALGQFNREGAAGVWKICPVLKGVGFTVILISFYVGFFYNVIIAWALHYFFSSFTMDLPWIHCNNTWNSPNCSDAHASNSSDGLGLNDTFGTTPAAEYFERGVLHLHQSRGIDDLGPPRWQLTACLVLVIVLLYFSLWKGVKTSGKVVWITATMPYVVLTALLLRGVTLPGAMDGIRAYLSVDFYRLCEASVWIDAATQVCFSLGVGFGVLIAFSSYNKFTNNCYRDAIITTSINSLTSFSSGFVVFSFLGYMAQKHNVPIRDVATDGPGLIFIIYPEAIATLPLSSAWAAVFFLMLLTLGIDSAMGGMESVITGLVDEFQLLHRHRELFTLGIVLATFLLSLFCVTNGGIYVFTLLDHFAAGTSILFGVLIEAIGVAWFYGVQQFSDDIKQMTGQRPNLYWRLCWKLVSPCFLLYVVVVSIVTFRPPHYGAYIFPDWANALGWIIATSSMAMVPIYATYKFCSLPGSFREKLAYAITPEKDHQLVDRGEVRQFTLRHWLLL
UniProt Q63380, 1-617: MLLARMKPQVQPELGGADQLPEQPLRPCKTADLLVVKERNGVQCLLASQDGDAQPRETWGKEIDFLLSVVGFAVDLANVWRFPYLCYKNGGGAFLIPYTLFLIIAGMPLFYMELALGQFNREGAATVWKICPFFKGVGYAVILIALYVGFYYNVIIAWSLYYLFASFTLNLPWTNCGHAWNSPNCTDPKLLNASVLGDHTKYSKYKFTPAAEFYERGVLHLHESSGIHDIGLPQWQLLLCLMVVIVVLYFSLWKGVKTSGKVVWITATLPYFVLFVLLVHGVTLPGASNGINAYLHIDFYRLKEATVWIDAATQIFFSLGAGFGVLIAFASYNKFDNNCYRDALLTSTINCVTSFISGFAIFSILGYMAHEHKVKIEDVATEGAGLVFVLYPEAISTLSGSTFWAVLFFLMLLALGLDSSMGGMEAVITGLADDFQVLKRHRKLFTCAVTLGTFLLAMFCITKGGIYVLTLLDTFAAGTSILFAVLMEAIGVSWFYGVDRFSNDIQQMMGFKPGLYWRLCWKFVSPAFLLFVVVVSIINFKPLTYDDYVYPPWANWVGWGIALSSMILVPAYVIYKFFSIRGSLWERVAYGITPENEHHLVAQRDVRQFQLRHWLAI
UniProt P31652, whole entry: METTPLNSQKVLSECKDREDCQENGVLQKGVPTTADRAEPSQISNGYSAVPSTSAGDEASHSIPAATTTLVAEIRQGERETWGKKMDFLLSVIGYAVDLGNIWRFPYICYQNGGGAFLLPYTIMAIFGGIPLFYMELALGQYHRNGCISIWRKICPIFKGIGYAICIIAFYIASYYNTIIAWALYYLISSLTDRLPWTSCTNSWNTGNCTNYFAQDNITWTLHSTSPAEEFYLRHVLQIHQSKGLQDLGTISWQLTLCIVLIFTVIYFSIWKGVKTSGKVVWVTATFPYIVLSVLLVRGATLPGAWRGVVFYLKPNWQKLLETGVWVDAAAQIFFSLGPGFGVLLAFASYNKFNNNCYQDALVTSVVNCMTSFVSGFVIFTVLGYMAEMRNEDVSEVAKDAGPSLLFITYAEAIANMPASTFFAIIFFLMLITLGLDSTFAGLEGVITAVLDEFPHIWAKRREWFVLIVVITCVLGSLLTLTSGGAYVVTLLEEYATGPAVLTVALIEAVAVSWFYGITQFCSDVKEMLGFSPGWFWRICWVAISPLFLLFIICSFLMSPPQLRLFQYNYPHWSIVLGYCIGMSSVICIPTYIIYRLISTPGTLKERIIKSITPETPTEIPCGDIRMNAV

In US6069177A, “3-Hydroxy-propanamine derived neuronal reuptake inhibitors” (priority 1997, dated 2000):

Key:
[1] = biological target: T1, DA reuptake into rat brain synaptosomes (Rattus norvegicus, UniProt P23977); assay: DA reuptake inhibition in rat brain synaptosomes; assay type: biochemical, rat (male Sprague-Dawley), striatal tissue
T1 construct: A crude synaptosomal (P2) fraction was prepared; tissue Harlan Sprague-Dawley (animals); host or cells: rat striatum, crude synaptosomal (P2) fraction

[2] = biological target: T2, NE reuptake into rat brain synaptosomes (Rattus norvegicus, UniProt Q63380); assay type: biochemical, rat (male Sprague-Dawley), hippocampal tissue; settings: Ki (NE)/Ki (compound or drug); Prozac to Serzone derived from literature Ki
T2 construct: A crude synaptosomal (P2) fraction was prepared; tissue Harlan Sprague-Dawley (animals); host or cells: rat hippocampus, crude synaptosomal (P2) fraction

[3] = biological target: T3, 5-HT reuptake into rat brain synaptosomes (Rattus norvegicus, UniProt P31652); assay: 5-HT reuptake inhibition in rat brain synaptosomes; assay type: biochemical, rat (male Sprague-Dawley), cortical tissue; settings: Ki (5-HT)/Ki (compound or drug); Prozac to Serzone derived from literature Ki
T3 construct: A crude synaptosomal (P2) fraction was prepared; tissue Harlan Sprague-Dawley (animals); host or cells: rat cerebral cortex, crude synaptosomal (P2) fraction

COc1ccc(C(CN(C)C)C2(O)CCCCC2)cc1 (stereo not shown) [Effexor ®, reference compound]
Ki ([1]; rat brain synaptosomes): 360 ± 53.2 nM
NE (Rat) Reuptake Inhibition Potency [2]: 0.86

Fc1ccc([C@@H]2CCNC[C@H]2COc2ccc3c(c2)OCO3)cc1 [Paxil ®, reference compound]
5-HT (Rat) Reuptake Inhibition Potency [3]: 25.3

CNCC[C@@H](Oc1ccccc1C)c1ccccc1 [Tomoxetine, reference compound]
DA (Rat) Reuptake Inhibition Potency ([1]; Ki (DA)/Ki (compound or drug), Prozac to Serzone derived from literature Ki): 0.05
